By UniProt entry, the sequences of proteins in these tests, tags left out.
UniProt Q8NER1, whole entry: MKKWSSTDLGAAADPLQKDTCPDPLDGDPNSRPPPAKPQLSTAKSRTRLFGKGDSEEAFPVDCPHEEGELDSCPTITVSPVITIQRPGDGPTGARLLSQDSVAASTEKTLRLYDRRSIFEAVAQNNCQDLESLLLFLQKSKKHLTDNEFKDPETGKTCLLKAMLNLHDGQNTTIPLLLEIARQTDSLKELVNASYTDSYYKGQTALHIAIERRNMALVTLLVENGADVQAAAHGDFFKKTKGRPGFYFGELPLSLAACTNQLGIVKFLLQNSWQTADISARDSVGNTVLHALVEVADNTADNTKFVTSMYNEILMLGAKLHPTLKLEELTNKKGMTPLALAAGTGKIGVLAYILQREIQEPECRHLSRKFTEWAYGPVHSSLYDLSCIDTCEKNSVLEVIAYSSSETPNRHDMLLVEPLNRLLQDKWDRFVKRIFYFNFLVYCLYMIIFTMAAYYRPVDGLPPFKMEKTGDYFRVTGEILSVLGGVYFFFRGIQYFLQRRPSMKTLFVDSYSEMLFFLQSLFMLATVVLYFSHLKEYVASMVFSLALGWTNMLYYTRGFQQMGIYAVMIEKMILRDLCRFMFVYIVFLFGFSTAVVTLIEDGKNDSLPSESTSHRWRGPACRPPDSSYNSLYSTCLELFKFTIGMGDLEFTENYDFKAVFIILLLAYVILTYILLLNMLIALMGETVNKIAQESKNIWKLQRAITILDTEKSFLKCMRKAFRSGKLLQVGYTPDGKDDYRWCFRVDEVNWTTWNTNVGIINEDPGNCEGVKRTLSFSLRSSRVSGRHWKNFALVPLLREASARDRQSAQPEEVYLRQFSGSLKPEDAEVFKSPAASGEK

According to paper PMC5684552, “A Molecular Basis for the Inhibition of Transient Receptor Potential Vanilloid Type 1 by Gomisin A” (Evidence-based Complementary and Alternative Medicine : eCAM, 2017):

Target: human TRPV1 receptor channel (Homo sapiens, UniProt Q8NER1)
Assay: Two-electrode voltage clamp of capsaicin-induced current in Xenopus oocytes expressing wild type human TRPV1
Type: cell-based
Conditions: capsaicin (1 μM)-stimulated inward current, holding potential −80 mV

gomisin A
IC50: 62.1 ± 3.7 µM
